Experimental data as given in ChEMBL document CHEMBL1136167, “Prediction of hERG potassium channel affinity by traditional and hologram qSAR methods” (Bioorg Med Chem Lett, 2003).

Sequences of proteins named here, by UniProt entry; tags and fusion partners are left off. A change or cut given only in a name is not applied to a line headed by its entry.
UniProt Q12809: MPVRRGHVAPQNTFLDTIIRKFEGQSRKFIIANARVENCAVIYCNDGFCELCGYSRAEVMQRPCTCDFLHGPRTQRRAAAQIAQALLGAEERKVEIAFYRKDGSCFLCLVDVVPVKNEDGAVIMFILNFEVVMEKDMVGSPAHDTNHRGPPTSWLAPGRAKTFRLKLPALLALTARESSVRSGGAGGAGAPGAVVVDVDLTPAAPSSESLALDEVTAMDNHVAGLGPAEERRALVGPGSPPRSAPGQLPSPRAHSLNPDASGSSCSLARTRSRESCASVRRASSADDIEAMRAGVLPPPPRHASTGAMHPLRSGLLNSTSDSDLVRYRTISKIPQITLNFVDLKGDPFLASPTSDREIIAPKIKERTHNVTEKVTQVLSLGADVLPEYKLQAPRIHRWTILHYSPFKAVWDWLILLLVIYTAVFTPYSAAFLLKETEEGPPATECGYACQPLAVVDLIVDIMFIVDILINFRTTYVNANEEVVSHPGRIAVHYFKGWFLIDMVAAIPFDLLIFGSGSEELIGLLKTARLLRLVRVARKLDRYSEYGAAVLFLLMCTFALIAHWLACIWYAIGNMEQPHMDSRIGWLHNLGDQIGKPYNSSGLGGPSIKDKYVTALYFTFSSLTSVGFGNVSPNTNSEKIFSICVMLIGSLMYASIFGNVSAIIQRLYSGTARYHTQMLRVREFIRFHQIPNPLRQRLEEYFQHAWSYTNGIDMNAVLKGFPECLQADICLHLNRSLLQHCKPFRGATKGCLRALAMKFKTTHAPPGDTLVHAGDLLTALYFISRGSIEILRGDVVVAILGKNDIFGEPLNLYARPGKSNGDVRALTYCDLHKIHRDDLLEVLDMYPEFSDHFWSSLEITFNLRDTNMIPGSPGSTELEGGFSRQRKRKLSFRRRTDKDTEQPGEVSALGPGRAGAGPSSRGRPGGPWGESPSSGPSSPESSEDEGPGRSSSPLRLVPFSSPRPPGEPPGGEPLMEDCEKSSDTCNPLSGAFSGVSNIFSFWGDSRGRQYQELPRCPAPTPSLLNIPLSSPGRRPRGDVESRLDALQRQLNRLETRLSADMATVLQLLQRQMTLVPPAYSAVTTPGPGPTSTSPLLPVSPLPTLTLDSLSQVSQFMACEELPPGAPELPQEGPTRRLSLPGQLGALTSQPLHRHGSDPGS

Biological target: Voltage-gated inwardly rectifying potassium channel KCNH2 (Homo sapiens, UniProt Q12809)

Structure (SMILES)	IC50 [nM]
Cc1nccn1CC1CCc2c(c3ccccc3n2C)C1=O (configuration not stated) [ONDANSETRON]	813
O=C1Cc2cc(CCN3CCN(c4nsc5ccccc45)CC3)c(Cl)cc2N1 [ZIPRASIDONE HYDROCHLORIDE]	120

Structures can show the parent of a compound that is named as a salt.
